{
  "source": "ChEMBL document CHEMBL6087451",
  "about": "“Design, Synthesis, and Biological Evaluation of 2-Arylaminopyrimidine Derivatives as Dual Cathepsin L and JAK Inhibitors for the Treatment of Acute Lung Injury” (J Med Chem, 2025)",
  "key": {"HBE [1]": {"test_system": "HBE", "assay": "Anti-inflammatory activity against HBE cells assessed as inhibition of LPS-induced IL-8 level pretreated for 30 mins followed by LPS treatment for 24 hrs by ELISA", "details": "Homo sapiens, dose <= 5.0 µM, time 24.5 hrs"}, "HBE [2]": {"test_system": "HBE", "assay": "Anti-inflammatory activity against HBE cells assessed as inhibition of LPS-induced IL-6 level pretreated for 30 mins followed by LPS treatment for 24 hrs by ELISA", "details": "Homo sapiens, dose <= 5.0 µM, time 24.5 hrs"}},
  "data": [
    {"molecule": "Cc1ccc(Nc2nccc(-c3cn(C)c4ccccc34)n2)cc1N.Cl", "values": [
      {"measurement": "inhibition", "setting": "HBE [1]", "result": "Dose-dependent-effect"},
      {"measurement": "inhibition", "setting": "HBE [2]", "result": "Dose-dependent-effect"}
    ]}
  ]
}
